Several values for one entry are separate records, joined by “and”; a condition that tells them apart may be missing. Equal values may be shown once.
Test system: intracranial ST1360B PDX tumors
Test: Intracranial ST1360B PDX tumor model
Assay type: in vivo, mouse
Details: MRI, individual mice
Experimental: The viability of total cells was greater than 80%. […] The cells were kept on ice until inoculation.
Drugs were diluted in sterile saline before each dosing. […] The dosing volume was 5.0 mL/kg.
The fixative: tissue ratio was at least 20:1.
Image analysis was performed using Horos.

trastuzumab-emtansine [T-DM1, reference compound]
Brain edema score day 3 (scale 0-4 (0 no, 4 massive brain edema), day 3 post initiation of therapy): 1 and 0 (3×) and 2 | Brain edema score day 7 (scale 0-4, day 7): 2 (2×) and 1 (3×) | Brain edema score day 10 (scale 0-4, day 10): 2 and 3 (2×) and 1 | Brain edema score day 14 (scale 0-4, day 14): 3 (2×) and 2 (3×) | Brain edema score day 21 (scale 0-4, day 21): 2 | Brain edema score day 28 (scale 0-4, day 28): 3 | Brain edema final score (scale 0-4, last MR scan): 3 (4×) and 2

Source: patent US20210206875A1, “ERBB-2 TARGETING AGENT AND A BISPECIFIC ANTIBODY WITH ANTIGEN-BINDING SITES THAT BIND AN EPITOPE ON AN EXTRACELLULAR PART OF ERB-2 AND ERBB-3, FOR TREATMENT OF AN INDIVIDUAL WITH AN ERBB-2, ERBB-2/ERBB-3 POSITIVE TUMOUR” (Merus N.V., priority 2017, published 2021)
